From paper PMC6199309, “A therapeutic approach to pantothenate kinase associated neurodegeneration” (Nature Communications, 2018)

Sequences of proteins named here, by UniProt entry; tags and fusion partners are left off. A change or cut given only in a name is not applied to a line headed by its entry.
UniProt Q9H999: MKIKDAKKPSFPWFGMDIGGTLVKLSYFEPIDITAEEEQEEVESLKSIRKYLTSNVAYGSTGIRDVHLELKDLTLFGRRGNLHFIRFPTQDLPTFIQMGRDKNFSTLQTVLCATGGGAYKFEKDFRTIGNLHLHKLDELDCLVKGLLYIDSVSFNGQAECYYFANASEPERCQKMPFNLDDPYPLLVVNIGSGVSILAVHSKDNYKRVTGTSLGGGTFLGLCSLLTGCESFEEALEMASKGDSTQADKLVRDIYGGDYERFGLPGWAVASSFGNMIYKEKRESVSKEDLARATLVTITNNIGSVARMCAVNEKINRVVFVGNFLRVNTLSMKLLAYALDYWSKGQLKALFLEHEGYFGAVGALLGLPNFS

Assays:
[1] = target: human PANK3 (Homo sapiens, UniProt Q9H999); assay: PANK activity assay (radiochemical, without acetyl-CoA)
[2] = Caco2 permeability; type: in vitro ADME; conditions: human, Caco-2; read-out: Caco2 Permeability Efflux Ratio (B2A/A2B)

SMILES | IC50 [1] [nM] | efflux ratio [2] | LipE (pIC50 – ClogP) ([1]; from PANK3 IC50 and ClogP)
CC(C)(C)c1ccc(NC(=O)N2CCN(c3ccc(C#N)cn3)CC2)cc1 [PZ-2789, N-(4-(tert-butyl)phenyl)-4-(5-cyanopyridin-2-yl)piperazine-1-carboxamide] | 844 | 0.5 | 
CC(C)c1ccc(CC(=O)N2CCN(c3ccc(C#N)cn3)CC2)cc1 [PZ-2863] | 122 |  | 3.6
